Test results: article PMC5966428, “Comparative inhibitory profile and distribution of bacterial PARPs, using Clostridioides difficile CD160 PARP as a model” (Scientific Reports, 2018)

Chains of the proteins cited; added tags and fusions are not shown.
UniProt A9B244, entry or part of it: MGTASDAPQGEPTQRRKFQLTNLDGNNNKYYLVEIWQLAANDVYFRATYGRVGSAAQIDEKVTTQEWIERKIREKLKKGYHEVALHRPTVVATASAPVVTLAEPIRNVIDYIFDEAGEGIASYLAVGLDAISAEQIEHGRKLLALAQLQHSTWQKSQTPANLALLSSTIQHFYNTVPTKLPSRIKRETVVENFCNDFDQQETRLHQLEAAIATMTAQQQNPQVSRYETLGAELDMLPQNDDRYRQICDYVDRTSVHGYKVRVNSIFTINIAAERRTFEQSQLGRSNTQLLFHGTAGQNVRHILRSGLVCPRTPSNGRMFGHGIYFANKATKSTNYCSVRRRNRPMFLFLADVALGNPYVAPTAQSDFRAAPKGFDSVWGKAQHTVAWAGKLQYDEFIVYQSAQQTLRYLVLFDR

Columns and labels:
HaPARP = HaPARP (Herpetosiphon aurantiacus, UniProt A9B244); assay: Thermal stability assay (Sypro Orange melting curves); assay type: binding; settings: compound at 1 mM; Tm in MilliQ water 39,75
CdPARP = assay: as above; assay type: binding, Clostridioides difficile CD160; settings: compound at 1 mM; Tm in MilliQ water 40,27

NC(=O)c1cccc(N)c1 [3-aminobenzamide]
HaPARP Tm (melting temperature) (HaPARP): 46,91±0,10 °C | CdPARP Tm (melting temperature) (CdPARP): 41,96±0,06 °C
